The numbers were not newly measured in patent publication US10226455B2 (priority 2014, dated 2019), which cites them from elsewhere.

For this data set the following is noted: after administration; cited from earlier work.

As for ivermectin, the “time to maximal tissue absorption” value was 3 to 5 h.
